# Binding of CDR-mutated scFvs to a peptide of the spike HR2 region

Values reported by Li et al. 2023, doi:10.1038/s41467-023-39022-2 (FLAb copy).

Antigen: PDVDLGDISGINAS, a 14-residue peptide of the SARS-CoV-2 spike HR2 region.

Parent scFv Ab-14: VH joined to VL by a 15-residue (Gly4Ser)3 linker. Changes lie in the heavy chain CDRs alone.
VH: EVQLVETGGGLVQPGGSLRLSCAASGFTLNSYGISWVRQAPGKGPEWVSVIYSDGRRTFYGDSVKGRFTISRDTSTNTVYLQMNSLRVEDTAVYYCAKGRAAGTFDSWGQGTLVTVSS
VL: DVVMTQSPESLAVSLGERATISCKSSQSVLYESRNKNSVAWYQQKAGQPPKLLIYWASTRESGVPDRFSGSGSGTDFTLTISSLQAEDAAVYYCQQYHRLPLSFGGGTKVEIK

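The parent was found by panning a naive human phage display library on the peptide. The variants were designed computationally from a first round of random CDR variants and then made and measured. Their group label is 14H_GPLM_Gen (GPLM: also part of the Gaussian process libraries; Gen: genetic algorithm; a sequence that several methods proposed may carry one label only). Affinity was read by AlphaSeq, a pooled yeast mating assay with surface-displayed partners. The frequency of each diploid, read from paired DNA barcodes, reflects how well the two displayed proteins bind. Each replicate has its own calibration line, from reference interactions of the BCL2 family. Each pool was mated in six replicate cultures.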

Variants are written as CDR1, CDR2 and CDR3 of the heavy chain (limits as in the source). Parent: GFTLNSYGIS, VIYSDGRRTFYGDSVK, GRAAGTFDS. Affinities are written as log10 Kd with Kd in nM; a lower number is a better binder. The mean shown is taken over the replicates in which the pair was detected. Where no diploid with the target was found in that replicate, the entry reads "n.d.": below detection, most likely a poor binder, though not proof of it. In the paper, a design with two or fewer of six values counts as a poor binder. The range of this assay differs from that of the first round, and the authors advise against merging the two. Nonspecific signal, from three strains lacking the peptide, appeared in 1% of pairings of all heavy chain designs, centred on 2.08 (5% of these signals below 0.84); values are not corrected for it. The control count says in how many pairings with the empty strains this scFv gave a signal, with their mean in brackets. Of ten entries with the parent sequence, four were seen in most replicates (averages 0.34 to 2.37), three in one and three in none, so single entries are noisy.

| CDR-H1 | CDR-H2 | CDR-H3 | log10 Kd, replicates | mean log10 Kd (nM) | empty controls |
|---|---|---|---|---|---|
| GFNLNSYGIS | VIYSDGRRTFYADHVK | GQAAGTFDS | n.d. 1.96 2.27 2.11 n.d. 3.63 | 2.49 | 0/18 |
| GFSLNEYGIS | VIYSDGRRTFYGDSVK | GREAGTFDS | -0.46 -0.03 -0.47 -0.85 -0.90 -0.40 | -0.52 | 0/18 |
| GFSLNEYGIS | VIYSDGRRTFYGDSVK | GSAAGTFDS | 0.96 1.78 1.48 0.59 1.02 1.24 | 1.18 | 0/18 |
| GFTLNEYGIS | VIYSDGRRTFYGDSVK | GRQAGTFDT | n.d. 1.15 1.25 0.93 2.33 n.d. | 1.42 | 0/18 |
| GFHLNSYGIS | VIYSDGRRTFYADSVK | GNAAGTFDS | 0.84 1.20 1.80 0.48 0.61 1.35 | 1.05 | 0/18 |
| GFVLNSYGIS | VIYSDGRRTFYGDSVK | GQAAGTFDS | n.d. n.d. n.d. n.d. n.d. 1.52 | 1.52 | 0/18 |
| GFSLNEYGIS | VIYSDGRRTFYGDWVK | GRTAGTFDS | 1.01 0.17 2.93 0.58 -0.01 0.28 | 0.82 | 0/18 |
| GFSLNEYGIS | VIYSDGRRTFYGDSVK | GGAAGTFDS | -0.57 -0.57 -0.91 -0.60 -0.17 -0.44 | -0.54 | 0/18 |
| GFTLNSYGIS | VIYSDGRRTFYADSVK | GQLAGTFDS | 0.39 0.52 0.55 0.13 0.65 0.70 | 0.49 | 0/18 |
| GFSLNSYGIS | VIYSDGRRTFYADSVK | GLTAGTFDS | 1.27 0.35 0.31 0.44 0.52 0.38 | 0.54 | 0/18 |
| GFTLNEYGIS | VIYSDGRRTFYGDSVK | GRIAGTFDL | 1.20 0.51 1.42 0.44 n.d. 0.54 | 0.82 | 0/18 |
| YFSLNSYGIS | VIYSDGRRTFYADSVK | GEAAGTFDS | n.d. 0.65 1.57 1.73 0.39 1.15 | 1.10 | 0/18 |
| GFSLNSYGIS | VIYSDGRRTFYADDVK | GQTAGTFDS | 0.27 -0.44 -0.50 0.28 -0.83 -0.17 | -0.23 | 0/18 |
| GFSLNSYGIS | VIYSDGRRTFYADSVK | GMTAGTFDS | -0.15 -0.02 -0.52 -0.14 -0.60 -0.39 | -0.30 | 0/18 |
| GFSLNMYGIS | VIYSDGRRTFYIDSVK | GQAAGTFDS | 1.35 0.68 n.d. 2.65 1.58 n.d. | 1.56 | 0/18 |
| GFSLNDYGIS | VIYSDGRRTFYGDDVK | GRTAGTFDS | -0.28 -0.35 -0.24 -0.69 -0.25 -0.31 | -0.35 | 0/18 |
| GFDLNSYGIS | VIYSDGRRTFYADPVK | GQAAGTFDS | 0.42 0.22 0.19 -0.06 -0.04 0.12 | 0.14 | 1/18 (2.29) |
| GFSLNMYGIS | VIYSDGRRTFYGDSVK | GKAAGTFDS | 2.01 1.02 0.99 1.55 0.90 1.15 | 1.27 | 0/18 |
| GFTLNSYGIS | VIYSDGMRTFYADSVK | GRTAGTFDS | 0.24 0.15 0.39 0.45 0.56 0.45 | 0.37 | 0/18 |
| GFSLNSYGIS | VIYSDGRRTFYTDSVK | GRNAGTFDS | 0.73 0.53 0.74 0.39 0.63 1.28 | 0.72 | 0/18 |
| GFSLNSYGIS | VIYSDGRRTFYADDVK | GQAAGTFDS | 0.12 0.15 0.49 -0.26 0.17 0.49 | 0.19 | 0/18 |
| GFTLNEYGIS | VIYSDGRRTFYGDSVK | GEAAGTFDT | 0.49 0.54 -0.25 0.27 0.32 0.23 | 0.27 | 0/18 |
| GFKLNSYGIS | VIYSDGRRTFYADSVK | GRTAGTFDS | n.d. n.d. n.d. 0.63 1.36 0.66 | 0.88 | 0/18 |
| GFKLNSYGIS | VIYSDGRRTFYHDSVK | GRTAGTFDS | 1.40 0.73 0.34 0.47 n.d. 0.77 | 0.74 | 0/18 |
| GFTLNSYGIS | VIYSDGRRTFYGDSVK | GWTAGTFDS | 1.17 1.37 n.d. 2.02 1.53 n.d. | 1.52 | 0/18 |
| GFSLNSYGIS | VIYSDGRRTFYGDSVK | GEAAGTFDA | n.d. n.d. n.d. 1.86 n.d. n.d. | 1.86 | 0/18 |
| GFSLNSYGIS | VIYSDGRRTFYIDSVK | GRLAGTFDS | -0.28 n.d. n.d. 0.30 n.d. n.d. | 0.01 | 0/18 |
| GFELNSYGIS | VIYSDGRRTFYGDSVK | GREAGTFDT | -0.24 0.43 0.23 0.06 -0.22 0.72 | 0.16 | 0/18 |
| GFSLNEYGIS | VIYSDGRRTFYADSVK | GRTAGTFDK | -0.17 -0.23 -0.13 -0.48 0.05 -0.29 | -0.21 | 0/18 |
| GFTLNEYGIS | VIYSDGRRTFYGDSVK | GRTAGTFES | 0.76 0.26 0.48 0.47 0.48 0.70 | 0.53 | 0/18 |
| GFDLNSYGIS | VIYSDGRRTFYKDSVK | GRVAGTFDS | n.d. 0.80 1.24 1.30 2.29 1.23 | 1.37 | 1/18 (0.98) |
| GFSLNSYGIS | VIYSDGRRTFYADDVK | GRAAGTFDS | 1.29 0.29 -0.32 0.60 1.23 0.42 | 0.59 | 0/18 |
| GFSLNSYGIS | VIYSDGRRTFYADSVK | GRNAGTFDT | 0.30 0.06 -0.21 0.01 -0.27 -0.15 | -0.04 | 1/18 (1.86) |
| GFTLNEYGIS | VIYSDGQRTFYGDSVK | GRTAGTFDS | 0.28 0.22 -0.04 0.14 -0.12 0.00 | 0.08 | 0/18 |
| GFSLNSYGIS | VIYADGRRTFYGDSVK | GEAAGTFDS | 0.16 -0.02 -0.04 0.13 0.23 0.50 | 0.16 | 0/18 |
| GFTLDSYGIS | VIYADGRRTFYGDSVK | GKAAGTFDS | 0.30 0.10 0.34 0.35 0.23 -0.25 | 0.18 | 1/18 (3.78) |
| GFTLDSYGIS | VIYSDGRRTFYADSVK | GKAAGTFDS | 1.07 0.76 0.32 0.54 0.13 0.22 | 0.51 | 0/18 |

3 of these entries, quoted again:

| CDR-H1 | CDR-H2 | CDR-H3 | log10 Kd, replicates | mean log10 Kd (nM) | empty controls |
|---|---|---|---|---|---|
| GFTLNSYGIS | VIYSDGMRTFYADSVK | GRTAGTFDS | 0.24 0.15 0.39 0.45 0.56 0.45 | 0.37 | 0/18 |
| GFSLNEYGIS | VIYSDGRRTFYADSVK | GRTAGTFDK | -0.17 -0.23 -0.13 -0.48 0.05 -0.29 | -0.21 | 0/18 |
| GFSLNSYGIS | VIYSDGRRTFYADDVK | GQTAGTFDS | 0.27 -0.44 -0.50 0.28 -0.83 -0.17 | -0.23 | 0/18 |